Laboratory results from article PMC5415745, “Drug-transporter mediated interactions between anthelminthic and antiretroviral drugs across the Caco-2 cell monolayers” (BMC Pharmacology & Toxicology, 2017).
Where “and” joins values, the source holds several entries; their conditions need not be identical. Equal values may be shown once. Blank lines part the entries; values can stand above or below the compound they belong to.

Tested on: Caco-2 cell monolayers
Assay: Bidirectional (AP→BL, BL→AP) drug transport across Caco-2 cell monolayers in transwells: cumulative transport, Papp, efflux ratio; HPLC or radiolabeled assay
[1] = PZQ alone (SQV experiment), 180 min, samples 1-3
[2] = SQV alone, 240 min, individual experiments 1-3

- Apical to basal transport Mean (PZQ alone (EFV experiment), 60 min, mean): 31.65 pmol
- Basal to apical transport (PZQ alone (EFV experiment), 240 min, samples 1-3): 51.94 pmol
- Basal to apical transport (PZQ alone (NVP experiment), 180 min, samples 1-3): 51.94 pmol
- Apical to basal transport [1]: 26.92 pmol and 26.96 pmol
- Basal to apical transport [1]: 22.42 pmol
SMILES: O=C(C1CCCCC1)N1CC(=O)N2CCc3ccccc3C2C1 (centres unmarked) [PZQ, praziquantel]

SMILES: CC[C@H](C)[C@H]1O[C@]2(CC[C@@H]1C)C[C@@H]1C[C@@H](C/C=C(\C)[C@@H](O[C@H]3C[C@H](OC)[C@@H](O[C@H]4C[C@H](OC)[C@@H](O)[C@H](C)O4)[C@H](C)O3)[C@@H](C)/C=C/C=C3\CO[C@@H]4[C@H](O)C(C)=C[C@@H](C(=O)O1)[C@]34O)O2 [IVM, ivermectin]
- Basal to apical transport (cumulative, receiver), Mean (120 min, mean n=3): 1.36 pmol
- Basal to apical transport (IVM alone (SQV experiment), 60 min, samples 1-3): 0.01353 pmol
- Basal to apical transport (IVM alone (SQV experiment), 180 min, samples 1-3): 0.02547 pmol and 0.02552 pmol
- Basal to apical transport (IVM alone, 60 min, individual experiments 1-3): 16.19 pmol
- Basal to apical transport (IVM alone, 180 min, individual experiments 1-3): 25.52 pmol
- Basal to apical transport (IVM alone, 240 min, individual experiments 1-3): 32.09 pmol
- Basal to apical transport ([3H] IVM alone, 60 min, individual experiments 1-3): 0.01356 pmol
- Mean ER value (efflux ratio, PappBL-AP/PappAP-BL) (after 60 min (3600 sec), mean of individual sample ERs (n=3), drug alone, or label 'A + B' = A in presence of B): 1.19

SMILES: CC(C)(C)NC(=O)[C@@H]1C[C@@H]2CCCC[C@@H]2CN1C[C@@H](O)[C@H](Cc1ccccc1)NC(=O)[C@H](CC(N)=O)NC(=O)c1ccc2ccccc2n1 [SQV, saquinavir]
- Basal to apical transport (SQV alone (PZQ experiment), 240 min, samples 1-3): 20.22 pmol
- Apical to basal transport [2]: 11.24 pmol
- Basal to apical transport [2]: 22.46 pmol
- Apical to basal transport Conc. Apical (SQV alone, after 60 min, samples 1-3): 27.69 pmol
